target: Muscarinic acetylcholine receptor M3 (Homo sapiens, UniProt P20309); details: not given

Compound | pKi
COc1cc(C(=O)NCCCOc2cccc([C@](O)(C(=O)O[C@@H]3CCCN(C)C3)c3ccccc3)c2)c(OC)cc1CNC[C@H](O)c1ccc(O)c2[nH]c(=O)ccc12 | 9.5
CN1CCC[C@@H](OC(=O)[C@](O)(c2ccccc2)c2cccc(OCCCNC(=O)c3ccc(CNC[C@H](O)c4ccc(O)c5[nH]c(=O)ccc45)c(F)c3)c2)C1.O=CO | 9.1
CN1CCC[C@H](OC(=O)[C@](O)(c2ccccc2)c2cccc(OCCCNC(=O)c3ccc(CNC[C@H](O)c4ccc(O)c5[nH]c(=O)ccc45)cc3)c2)C1.O=CO.O=CO | 8.3
COc1cc(CNC[C@H](O)c2ccc(O)c3[nH]c(=O)ccc23)c(Cl)cc1C(=O)NCCCOc1cccc([C@](O)(C(=O)O[C@@H]2CCCN(C)C2)c2ccccc2)c1 | 9.8
CN1CCC[C@@H](OC(=O)[C@](O)(c2ccccc2)c2cccc(OCCCNC(=O)c3cnc(CNC[C@H](O)c4ccc(O)c5[nH]c(=O)ccc45)nc3)c2)C1.O=CO | 8.7
O=C(NCCCOc1cccc([C@](O)(C(=O)O[C@H]2CCN(Cc3ccccc3)C2)c2ccccc2)c1)c1ccc(CNC[C@H](O)c2ccc(O)c3[nH]c(=O)ccc23)cc1 | 8.5
O=C(NCCCOc1cccc([C@](O)(C(=O)O[C@@H]2CCN(Cc3ccccc3)C2)c2ccccc2)c1)c1ccc(CNC[C@H](O)c2ccc(O)c3[nH]c(=O)ccc23)cc1 | 9.1
O=C(NCCCOc1cccc([C@](O)(C(=O)OC[C@H]2CCN(Cc3ccccc3)C2)c2ccccc2)c1)c1ccc(CNC[C@H](O)c2ccc(O)c3[nH]c(=O)ccc23)cc1 | 9.4
O=C(NCCCOc1cccc([C@](O)(C(=O)O[C@@H]2CCCN(Cc3ccccc3)C2)c2ccccc2)c1)c1ccc(CNC[C@H](O)c2ccc(O)c3[nH]c(=O)ccc23)cc1.O=CO | < 7.4
O=C(NCCCOc1cccc([C@](O)(C(=O)OC[C@@H]2CCN(Cc3ccccc3)C2)c2ccccc2)c1)c1ccc(CNC[C@H](O)c2ccc(O)c3[nH]c(=O)ccc23)cc1 | 9.4
COc1cc(C(=O)NCCCOc2cccc([C@](O)(C(=O)O[C@@H]3CCCN(C)C3)c3ccccc3)c2)ccc1CNC[C@H](O)c1ccc(O)c2[nH]c(=O)ccc12 | 9.4
CN1CCC[C@@H](OC(=O)[C@](O)(c2ccccc2)c2cccc(OCCCNC(=O)c3ccc(CNC[C@H](O)c4ccc(O)c5[nH]c(=O)ccc45)cc3)c2)C1 | 9.3
COc1cc(C(=O)NCCCOc2cccc([C@](O)(C(=O)O[C@@H]3CCCN(C)C3)c3ccccc3)c2)c(F)cc1CNC[C@H](O)c1ccc(O)c2[nH]c(=O)ccc12 | 9.8
O=C(NCCCOc1cccc([C@](O)(C(=O)OC2CCN(Cc3ccccc3)CC2)c2ccccc2)c1)c1ccc(CNC[C@H](O)c2ccc(O)c3[nH]c(=O)ccc23)cc1 | 9
O=C(NCCCOc1cccc([C@](O)(C(=O)O[C@H]2CCCN(Cc3ccccc3)C2)c2ccccc2)c1)c1ccc(CNC[C@H](O)c2ccc(O)c3[nH]c(=O)ccc23)cc1.O=CO | < 7.3
COc1cc(C(=O)NCCCOc2cccc([C@](O)(C(=O)O[C@@H]3CCCN(C)C3)c3ccccc3)c2)c(Cl)cc1CNC[C@H](O)c1ccc(O)c2[nH]c(=O)ccc12 | 9.6
CN1CCC[C@@H](OC(=O)[C@](O)(c2ccccc2)c2cccc(OCCCNC(=O)c3cccc(CNC[C@H](O)c4ccc(O)c5[nH]c(=O)ccc45)c3)c2)C1 | 9.4
Cc1cc(C(=O)NCCCOc2cccc([C@](O)(C(=O)O[C@@H]3CCCN(C)C3)c3ccccc3)c2)c(C)cc1CNC[C@H](O)c1ccc(O)c2[nH]c(=O)ccc12 | 8.9
CN1CCC[C@@H](OC(=O)[C@](O)(c2ccccc2)c2cccc(OCCCNC(=O)c3ccc(CNC[C@H](O)c4ccc(O)c5[nH]c(=O)ccc45)nc3)c2)C1.O=CO.O=CO | 9.1

target: Muscarinic acetylcholine receptor M3 (Cavia porcellus, UniProt Q8VH26); experiment: Antagonist activity at M3 receptor in male albino Dunkin-Hartley guinea pig trachea assessed as inhibition of carbachol-induced smooth muscle contraction in presence of propranolol; details: strain albino Dunkin-Hartley

Compound | pIC50
CN1CCC[C@@H](OC(=O)[C@](O)(c2ccccc2)c2cccc(OCCCNC(=O)c3ccc(CNC[C@H](O)c4ccc(O)c5[nH]c(=O)ccc45)cc3)c2)C1 | 9.2
